Results on four molecules are retold here after paper PMC8041433 (Environmental Health Perspectives, 2021).

Amino acid sequences for entries named in this document (tags omitted). Residues count along the entry.
UniProt P22303, 32-614: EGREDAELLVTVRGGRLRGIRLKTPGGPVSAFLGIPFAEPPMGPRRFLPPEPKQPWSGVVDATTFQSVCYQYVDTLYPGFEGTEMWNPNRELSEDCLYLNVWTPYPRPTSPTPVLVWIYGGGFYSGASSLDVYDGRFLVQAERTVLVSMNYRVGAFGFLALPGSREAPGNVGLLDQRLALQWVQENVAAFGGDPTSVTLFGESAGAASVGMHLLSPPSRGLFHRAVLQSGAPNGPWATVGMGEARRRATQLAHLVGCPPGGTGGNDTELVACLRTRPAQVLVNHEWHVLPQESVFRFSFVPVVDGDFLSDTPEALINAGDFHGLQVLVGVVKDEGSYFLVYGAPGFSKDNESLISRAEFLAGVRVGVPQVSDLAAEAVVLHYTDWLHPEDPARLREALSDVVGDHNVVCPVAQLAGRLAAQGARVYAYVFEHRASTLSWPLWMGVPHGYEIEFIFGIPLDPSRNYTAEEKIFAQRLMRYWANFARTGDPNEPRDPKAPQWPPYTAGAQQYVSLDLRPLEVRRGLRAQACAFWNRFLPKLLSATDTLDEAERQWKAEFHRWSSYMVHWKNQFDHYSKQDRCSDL

The target of experiment [1] is T1, recombinant human AChE (Homo sapiens, UniProt P22303). Put plainly: biochemical.
In experiment [2] the target is AChE in SH-SY5Y spheroids (Homo sapiens, UniProt P22303). The experiment is described as follows: cell-based. The note with it: potency (IC50), SH-SY5Y spheroids (48 h).
Experiment [3] addresses AChE in neural stem cell spheroids (Homo sapiens, UniProt P22303). Put plainly: cell-based. The note with it: potency (IC50).
For experiment [4], the target named is T1, recombinant human AChE. Put plainly: biochemical. This is another data set of the same source.
Another experiment addresses AChE in SH-SY5Y cells (Homo sapiens, UniProt P22303). The experiment is described as follows: cell-based. The experiment is classed as cell-based.
Experiment [5] addresses T1, recombinant human AChE. Put plainly: biochemical. The experiment is classed as biochemical.
Experiment [6] concerns the target T1, recombinant human AChE.

SMILES strings stand for the structures. Where “and” joins values, the source holds several entries; their conditions need not be identical. Identical values can stand only once. Counter-ions that a name gives are not always drawn. Like-named read-outs stand apart in the source and are kept apart here.
For IR or R in this document: key: Reversible (R); Irreversible (IR); ND, not detected in enzyme-based AChE inhibition assay from current study.

The term IC50 denotes the midpoint of a concentration-inhibition curve. Consider `CCOP(=S)(Oc1ccc([N+](=O)[O-])cc1)c1ccccc1` (stereo not shown) [EPN], for which the IC50 at recombinant human AChE [1] amounted to 67 ± 19.7 µM; in experiment [2] it was 7.88 µM; in experiment [3] (Neural stem cell spheroid (24 h)), 14.8 µM; in experiment [3] (Neural stem cell spheroid (48 h)), 26.8 µM.
Turning to `COP(=S)(OC)SCn1nnc2ccccc2c1=O` [Azinphos-methyl], the IC50 on recombinant human AChE [4] (IC50 (uM)) was 79.6 µM and 78.1 µM; on AChE in SH-SY5Y cells (IC50 (uM)) it was 28.3 µM and 39.1 µM and 17.8 µM and 34.9 µM.
Turning to `O=C(CCC1CCN(Cc2ccccc2)CC1)c1ccc2c(c1)NCCCC2.O=C(O)/C=C/C(=O)O` [Zanapezil fumerate, reference compound], the half-inhibitory concentration (IC50) at AChE in SH-SY5Y cells (read-out: IC50) is 0.195 µM.
`CCC1(c2cccc(O)c2)CCCCN(C)C1` (stereo not shown) [Meptazinol hydrochloride, reference compound]: the “CC-v2 (curve classes)” value was -2.1 at recombinant human AChE [4], -2.1 on AChE in SH-SY5Y cells and 4 on recombinant human AChE [6]. The Efficacy on recombinant human AChE [4] is -86; on recombinant human AChE [6], -26.331. Further, the “IR or R” value at recombinant human AChE [5] is given as “R”.
